scFv variants of Ab-14 (light chain) against a SARS-CoV-2 spike peptide

The measurements come from Li et al. 2023 (doi:10.1038/s41467-023-39022-2) through the FLAb antibody collection.

Target: peptide PDVDLGDISGINAS, taken from heptad repeat 2 (HR2) of SARS-CoV-2 spike.

Parent: Ab-14, a human scFv built as VH, the linker GGGGSGGGGSGGGGS, VL. Only the CDRs of the light chain vary.
VH: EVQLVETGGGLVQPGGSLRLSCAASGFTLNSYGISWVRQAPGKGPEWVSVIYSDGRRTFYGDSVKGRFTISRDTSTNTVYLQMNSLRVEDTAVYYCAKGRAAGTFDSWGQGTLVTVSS
VL: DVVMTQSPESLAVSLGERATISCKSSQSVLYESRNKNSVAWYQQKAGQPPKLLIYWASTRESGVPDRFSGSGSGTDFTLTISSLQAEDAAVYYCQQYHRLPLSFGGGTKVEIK

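This is the validation round: designs drawn from the data on random variants, tested in the same kind of assay. Group labels follow the data file (Ctrl: baseline library sampled from a position-specific scoring matrix, with some repeated check sequences; GP: Gaussian process model; HC: hill climbing; Gen: genetic algorithm; Gibbs: Gibbs sampling; a sequence that several methods proposed may carry one label only). Affinity was read by AlphaSeq, a pooled yeast mating assay with surface-displayed partners. After mating in shaken culture at 30 °C for 16 h, diploids were selected and their barcode pairs sequenced. Read counts were normalised to the haploid input and turned into Kd by a linear fit to BCL2-family pairs of known affinity, for each replicate. Each pool was mated in six replicate cultures.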

Variants are written as CDR1, CDR2 and CDR3 of the light chain (limits as in the source). Parent: KSSQSVLYESRNKNSVA, WASTRES, QQYHRLPLS. This list holds designs with at most six substitutions. The Kd shown is the geometric mean over detected replicates; a lower Kd is a better binder. "no signal" marks a missing value. The strain was present, yet no cells mated with the target were sequenced in any replicate, which points to weak or no binding. Order: sorted from the lowest average up, undetected variants last. Three control strains display no target. For all light chain designs, 4% of the pairings with them gave a signal, with a median of 430 nM and one signal in twenty below 38 nM, so weak values seen in few replicates may be background.

- KLSQSFLYESRNKNSVA / NASQRES / QQYHRLPLS [GP_Gen] -> 370 pM (6 of 6 replicates)
- KLEMSQLYESRNKNSVA / NASQRES / QQYHRLPLS [GP_Gen] -> 450 pM (6 of 6 replicates)
- KVSQSVLYESRNKNAVA / NASTRES / QQYHRLPLS [GP_Gen] -> 480 pM (6 of 6 replicates)
- HLSWSVLYESRNKNNVA / NASTRES / QQYHRLPLS [GP_HC] -> 490 pM (6 of 6 replicates)
- KVSQSVLYESRNKNSVA / NASKRES / QQYHRLPLS [GP_Gen] -> 530 pM (6 of 6 replicates)
- KLQQSQLYESRNKNSVA / DASTRES / QQYHRLPLS [GP_Gen] -> 580 pM (6 of 6 replicates)
- KLVQSELYESRNKNSVA / NASQRLS / QQYHRLPLS [GP_Gen] -> 610 pM (6 of 6 replicates)
- KSSMSFLYESRNKNSVA / DASTRES / QQYHRLPLS [GP_HC] -> 630 pM (6 of 6 replicates)
- KISQSVLYESRNKNSVA / HASTRES / QQYHRLPLS [Ctrl] -> 690 pM (6 of 6 replicates)
- KLSQSVDYESRNKNSVA / DASTRLS / QQYHRLPLS [GP_Gen] -> 700 pM (6 of 6 replicates)
- KLQQSYLYESRNKNSVA / NASTRCS / QQYHRLPLS [GP_Gen] -> 770 pM (6 of 6 replicates)
- KFSQSVLYESRNQNSVA / EASTRES / QQYHRLPLS [GP_Gen] -> 850 pM (6 of 6 replicates)
- KLSGSFLYESRNKNSVA / DASTRES / QQYHRLPLS [GP_Gen] -> 860 pM (6 of 6 replicates)
- KLSQSVLYESRNKNSVA / SASTREQ / QQYHRLPLS [GP_Gen] -> 890 pM (6 of 6 replicates)
- KSDQGVLYESRNKNSVA / GASQRES / QQYHRLPLS [GP_HC] -> 940 pM (6 of 6 replicates)
- KLSQSVLYESMNKNSVA / NASTRMS / QQYHRLPLS [GP_Gen] -> 1.0 nM (6 of 6 replicates)
- KFSQSDLYESRNKNSVA / EASTREQ / QQYHRLPLS [GP_Gen] -> 1.1 nM (6 of 6 replicates)
- KLPQSWLYESRNKNSVA / NASTRLS / QQYHRLPLS [GP_Gen] -> 1.1 nM (6 of 6 replicates)
- KFSGSVWYESRTKNSVA / NASTRES / QQYHRLPLS [GP_HC] -> 1.2 nM (6 of 6 replicates)
- KLSQSELYMSRNANSVA / NASTRMS / QQYHRLPLS [GP_Gibbs] -> 1.2 nM (6 of 6 replicates)
- KLSNSELYESRNKNSVA / EASTRES / QQYHRLPLS [GP_Gen] -> 1.8 nM (6 of 6 replicates)
- KSSQSVLYESRNKNSVA / DANTRTS / QQYHRLPLS [Ctrl] -> 1.9 nM (6 of 6 replicates)
- KLSQMPLYESRNANSVA / NASTREE / QQYHRLPLS [GP_Gibbs] -> 2.1 nM (6 of 6 replicates)
- KFSDSVLLEDRTKNSVA / NASTRES / QQYHRLPLS [GP_HC] -> 2.3 nM (6 of 6 replicates)
- KVQQSVPYESRNKNSVA / NASTRES / QQYHRLPLS [GP_Gen] -> 2.8 nM (6 of 6 replicates)
- KVLQSVWYEGRNKNSVA / HASTRED / QQYHRLPLS [GP_HC] -> 3.6 nM (6 of 6 replicates)
- KISQSVLYESRNKNSVA / AANTRES / QQYKRLPLS [Ctrl] -> 3.9 nM (6 of 6 replicates)
- KFSQSVLYESRNKNSVA / AASTRCS / QQYHILPLS [Ctrl] -> 4.4 nM (6 of 6 replicates)
- KLSQSVQYESRNKNSVA / WASTRES / QQYHSLPLS [Ctrl] -> 4.6 nM (6 of 6 replicates)
- KQSQSVLYESRDKNSVA / EASTRES / QQYQGLLLS [Ctrl] -> 9.0 nM (6 of 6 replicates)
- KSSISYLYESPNKNSVA / EASQRES / QQYHRLPLS [GP_HC] -> 12 nM (6 of 6 replicates)
- KSSQSVLDNSRNKNSVA / WASTREH / QQYHRLPLS [Ctrl] -> 79 nM (6 of 6 replicates)
- KLSQSVSYESRNKNSVA / WASWRES / YQYHRLPLS [Ctrl] -> 90 nM (6 of 6 replicates)
- KLRQSTMYESRNQNSVA / WASTRES / QQYHRLPLS [GP_HC] -> 320 nM (3 of 6 replicates)
- KSSQSVLPESRHKNSVA / WASTRES / QQYHRLPLS [Ctrl] -> 370 nM (1 of 6 replicates)
- QSSQSVLDESRNKNSVA / WASTRES / QQYHYLPLS [Ctrl] -> 700 nM (1 of 6 replicates)
- KWSQSVLDNSRNKNSVA / NASTRES / QQEGRLPLS [Ctrl] -> 1.3 µM (1 of 6 replicates)
- KSSQSILYESDNKNWVA / RASTRES / QQYHRLPLS [Ctrl] -> no signal (0 of 6 replicates)
- KSSQSVLYESRNKNSVA / WASTRES / QQYHILPLS [Ctrl] -> no signal (0 of 6 replicates)
- KSSQSMLYESRHKNSVA / WASTRES / QQYHRWPII [Ctrl] -> no signal (0 of 6 replicates)
- KSSQSVLYESRNKNSVA / WASTRES / FQYHRLPLS [Ctrl] -> no signal (0 of 6 replicates)
- KSSQSVLYESRNHNSVA / WASYRES / QDYHRLPLV [Ctrl] -> no signal (0 of 6 replicates)
- KSSQSWLYESENKNSVA / WASTRES / QQYHRWPLS [Ctrl] -> no signal (0 of 6 replicates)

Top 5 of the variants detected in all replicates, tightest first:

CDR-L1	CDR-L2	CDR-L3	group	Kd	seen in
KLSQSFLYESRNKNSVA	NASQRES	QQYHRLPLS	GP_Gen	370 pM	6/6
KLEMSQLYESRNKNSVA	NASQRES	QQYHRLPLS	GP_Gen	450 pM	6/6
KVSQSVLYESRNKNAVA	NASTRES	QQYHRLPLS	GP_Gen	480 pM	6/6
HLSWSVLYESRNKNNVA	NASTRES	QQYHRLPLS	GP_HC	490 pM	6/6
KVSQSVLYESRNKNSVA	NASKRES	QQYHRLPLS	GP_Gen	530 pM	6/6

The authors' rule: three or more of the six replicates give a measured affinity, fewer mean a poor binder. Values of this round are not directly comparable with the first-round values of the same sequences.